Consider 1 substance from patent US20200375945A1, “INHALABLE FORMULATION OF A SOLUTION CONTAINING INDACATEROL MALEATE AND GLYCOPYRRONIUM BROMIDE” (priority 2019, published 2020).

Data set [1] can be described thus: Tested concentration and assay of the active ingredients in the inhalation solution. It counts as physicochemical. The settings on record: in the sample solutions (ethanol/water, benzalkonium chloride, edetate disodium dihydrate).
The nature of data set [2]: Aerodynamic particle size distribution on Next Generation Impactor (NGI). To be noted: sample 2 sprayed with soft mist inhaler, NGI at 30 L/min. It counts as physicochemical. How it is done:
Sample 2 was sprayed with a soft mist inhaler. Aerodynamic particle size distribution of droplets of sample 2 was measured on Next Generation Impactor (NGI). Next Generation Impactor operated at a flow rate of 30 L/min was used for determination of particle size distribution. For each of the impactor experiments, the impactor collection stages were coated with a silicone oil. The aerodynamic particle size distribution is expressed in terms of mass median aerodynamic diameter (MMAD) and Geometric Standard Deviation (GSD).

As for Glycopyrronium bromide, in data set [1], the “Dissolution of the active in the solution” value is recorded as “completely dissolved”. Besides, the “MMAD (mass median aerodynamic diameter)” value in data set [2] turned out to be 3.35 μm.
